ChEMBL document CHEMBL2417388, “Design and synthesis of (4E)-4-(4-substitutedbenzylideneamino)-3-substituted-2,3-dihydro-2-thioxothiazole-5-carbonitrile as novel A2A receptor antagonists” (Bioorg Med Chem, 2013)

Target: Adenosine receptor A2a (Homo sapiens, UniProt P29274)
Test: Agonist activity at human A2A receptor expressed in HEK293 cells assessed as stimulation of cAMP release at 1 uM after 15 mins
Type: functional, cell-based

Molecule `N#Cc1sc(=S)n(-c2ccccc2)c1/N=C/c1ccc(Br)cc1` has an Activity of 0.65 pmol/mL.
